Where two headings read alike, the source gives them in different places.
What was measured:
hSERT mutant I172M [1] = details: fluorescence assay; 10 µM 5-HT; N = 3
hSERT I172M = details: cited from earlier work
hSERT mutant I172M [2] = details: radiotracer assay; 10 µM [3H]5-HT; N = 3

fold decrease in potency, hSERT I172M compared to wild type (IC50 ratio) (hSERT mutant I172M [1]): 1.6 fold
fold decrease in potency, hSERT I172M compared to wild type (IC50 ratio) (hSERT mutant I172M [2]): 2.6 fold
Compound: Fc1ccc([C@@H]2CCNC[C@H]2COc2ccc3c(c2)OCO3)cc1 [paroxetine]
fold decrease in potency, hSERT I172M compared to wild type (hSERT I172M; ref Davis et al. 36): 2.3 fold
fold decrease in potency, hSERT I172M compared to wild type (hSERT I172M; ref Henry et al. 34): 2.1 fold
